Experimental findings from patent US20250195521A1 (Revolution Medicines, Inc., priority 2020, published 2025) are described below.

Amino acid sequences for entries named in this document (tags omitted). A change or cut given only in a name is not applied to a line headed by its entry. Chains listed by the source or under a name are the forms on record and can include a tag or linker. Residues count along the entry.
UniProt P01116, 1-164 with tags or gaps G12S limits assumed: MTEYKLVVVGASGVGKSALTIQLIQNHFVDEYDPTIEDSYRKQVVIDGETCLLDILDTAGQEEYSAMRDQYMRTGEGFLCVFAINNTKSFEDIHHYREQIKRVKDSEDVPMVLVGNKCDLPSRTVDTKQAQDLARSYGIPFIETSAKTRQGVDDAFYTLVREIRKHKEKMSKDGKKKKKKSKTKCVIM
UniProt P01116, 1-164 with tags or gaps G12V limits assumed: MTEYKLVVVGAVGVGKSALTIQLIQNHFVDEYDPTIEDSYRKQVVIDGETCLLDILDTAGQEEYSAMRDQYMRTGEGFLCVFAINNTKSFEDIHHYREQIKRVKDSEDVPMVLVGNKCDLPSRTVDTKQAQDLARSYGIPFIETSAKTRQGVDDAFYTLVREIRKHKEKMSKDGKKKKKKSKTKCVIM
UniProt P01116, 1-164 with tags or gaps G13C limits assumed: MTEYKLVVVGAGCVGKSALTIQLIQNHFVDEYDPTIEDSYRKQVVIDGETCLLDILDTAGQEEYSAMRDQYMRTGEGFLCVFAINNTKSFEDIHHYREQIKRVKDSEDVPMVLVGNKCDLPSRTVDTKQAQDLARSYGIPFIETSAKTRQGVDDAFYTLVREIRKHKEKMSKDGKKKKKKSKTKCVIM
UniProt P01116, 1-164 with tags or gaps limits assumed: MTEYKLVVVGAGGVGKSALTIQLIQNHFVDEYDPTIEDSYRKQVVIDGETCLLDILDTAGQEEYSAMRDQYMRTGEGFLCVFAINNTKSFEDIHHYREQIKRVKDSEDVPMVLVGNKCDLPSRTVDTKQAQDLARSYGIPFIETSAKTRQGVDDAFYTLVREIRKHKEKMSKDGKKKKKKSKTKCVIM
UniProt P01116, 1-164 with tags or gaps G12C limits assumed: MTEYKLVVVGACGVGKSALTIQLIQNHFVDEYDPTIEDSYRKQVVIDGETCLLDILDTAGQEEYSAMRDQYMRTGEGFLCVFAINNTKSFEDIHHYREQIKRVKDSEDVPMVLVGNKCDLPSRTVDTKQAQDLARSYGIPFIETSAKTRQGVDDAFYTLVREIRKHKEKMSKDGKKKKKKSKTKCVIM
UniProt P01116, 1-164 with tags or gaps G12D limits assumed: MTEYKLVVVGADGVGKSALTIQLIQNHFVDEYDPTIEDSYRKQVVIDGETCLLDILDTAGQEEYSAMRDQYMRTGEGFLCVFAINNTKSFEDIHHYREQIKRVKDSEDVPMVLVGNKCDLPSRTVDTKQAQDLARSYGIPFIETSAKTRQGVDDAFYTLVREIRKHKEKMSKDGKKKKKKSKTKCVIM
UniProt P01116, 1-164 with tags or gaps G13D limits assumed: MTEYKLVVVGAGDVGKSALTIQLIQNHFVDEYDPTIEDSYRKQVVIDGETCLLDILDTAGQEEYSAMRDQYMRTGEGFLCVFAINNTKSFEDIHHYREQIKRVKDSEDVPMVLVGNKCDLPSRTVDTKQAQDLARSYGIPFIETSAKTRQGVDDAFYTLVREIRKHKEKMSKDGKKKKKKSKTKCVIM
UniProt P01116, 1-164 with tags or gaps Q61H limits assumed: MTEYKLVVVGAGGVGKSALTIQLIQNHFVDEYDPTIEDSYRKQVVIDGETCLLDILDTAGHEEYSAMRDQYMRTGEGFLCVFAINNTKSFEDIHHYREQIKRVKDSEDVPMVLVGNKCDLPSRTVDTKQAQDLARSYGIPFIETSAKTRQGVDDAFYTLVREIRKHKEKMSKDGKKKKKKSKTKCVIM
UniProt P62937, whole entry: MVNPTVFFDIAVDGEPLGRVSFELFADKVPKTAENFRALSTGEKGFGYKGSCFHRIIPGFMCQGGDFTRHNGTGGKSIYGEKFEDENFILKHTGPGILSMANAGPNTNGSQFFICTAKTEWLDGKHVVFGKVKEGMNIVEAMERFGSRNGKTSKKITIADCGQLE
UniProt P01111, whole entry: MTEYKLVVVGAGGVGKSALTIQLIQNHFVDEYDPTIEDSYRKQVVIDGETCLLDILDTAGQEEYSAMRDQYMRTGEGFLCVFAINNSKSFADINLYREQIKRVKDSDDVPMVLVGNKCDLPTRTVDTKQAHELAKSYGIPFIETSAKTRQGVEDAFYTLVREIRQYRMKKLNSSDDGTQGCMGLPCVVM

Where two headings read alike, the source gives them in different places.

The test system of test [1] is NCI-H358 (K-Ras G12C). As to the kind of experiment: CellTiter-Glo cell viability assay, H358. In kind it is cell-based, human. Particulars: read-out: H358 Cell Viability IC50, 5-day treatment.
Test [2] relates to AsPC-1 (K-Ras G12D). As to the kind of experiment: CellTiter-Glo cell viability assay, AsPC-1. In kind it is cell-based, human. Particulars: read-out: AsPC-1 Cell Viability IC50, 5-day treatment.
Another test addresses KRAS G13C (Homo sapiens (Human), UniProt P01116+P62937, G13C). Description: Ras-Raf disruption/FRET/MOA assay, KRAS G13C. Particulars: read-out: KRAS G13C FRET IC50. In kind it is biochemical.
In another test the target is KRAS WT (Homo sapiens (Human), UniProt P01116+P62937). As to the kind of experiment: Ras-Raf disruption/FRET/MOA assay, KRAS WT. As to conditions: read-out: KRAS WT FRET IC50. It counts as biochemical.
A further test concerns the target NRAS WT (Homo sapiens (Human), UniProt P01111+P62937). Description: Ras-Raf disruption/FRET/MOA assay, NRAS WT. It counts as biochemical. As to conditions: read-out: NRAS WT FRET IC50.
The subject of test [3] is AsPC-1 (K-Ras G12D). Description: Potency assay: pERK. It counts as cell-based, human. As to conditions: read-out: pERK EC50; AsPC-1 KRAS G12D.
For a further test, the target named is KRAS G13D (Homo sapiens (Human), UniProt P01116+P62937, G13D). Description: Ras-Raf disruption/FRET/MOA assay, KRAS G13D. In kind it is biochemical. As to conditions: read-out: KRAS G13D FRET IC50.
A further test deals with KRAS Q61H (Homo sapiens (Human), UniProt P01116+P62937, Q61H). Description: Ras-Raf disruption/FRET/MOA assay, KRAS Q61H. In kind it is biochemical. Particulars: read-out: KRAS Q61H FRET IC50.
Another test deals with KRAS G12S (Homo sapiens (Human), UniProt P01116+P62937, G12S). Description: Ras-Raf disruption/FRET/MOA assay, KRAS G12S. As to conditions: read-out: KRAS G12S FRET IC50. It counts as biochemical.
In the next test the target is KRAS G12V (Homo sapiens (Human), UniProt P01116+P62937, G12V). As to the kind of experiment: Ras-Raf disruption/FRET/MOA assay, KRAS G12V. Particulars: read-out: KRAS G12V FRET IC50. In kind it is biochemical.
The next test concerns the target KRAS G12D (Homo sapiens (Human), UniProt P01116+P62937, G12D). Description: Ras-Raf disruption/FRET/MOA assay, KRAS G12D. It counts as biochemical. Particulars: read-out: KRAS G12D FRET IC50.
The target of test [4] is KRAS WT binding to BRAF RBD (Homo sapiens (Human), UniProt P01116+P62937). As to the kind of experiment: Ras-Raf disruption/FRET/MOA assay, KRAS WT. In kind it is biochemical. Particulars: read-out: KRAS WT FRET IC50.
The target in test [5] is KRAS G12S binding to BRAF RBD (Homo sapiens (Human), UniProt P01116+P62937, G12S). Description: Ras-Raf disruption/FRET/MOA assay, KRAS G12S. In kind it is biochemical. Particulars: read-out: KRAS G12S FRET IC50.
The target in test [6] is KRAS G12V binding to BRAF RBD (Homo sapiens (Human), UniProt P01116+P62937, G12V). Description: Ras-Raf disruption/FRET/MOA assay, KRAS G12V. It counts as biochemical. Particulars: read-out: KRAS G12V FRET IC50.
Test [7] addresses K-Ras G12C(GMP-PNP) binding to BRAF RBD (Homo sapiens (Human), UniProt P01116+P62937, G12C). As to the kind of experiment: Disruption of BRAF RBD interaction with K-Ras (FRET / MOA assay), K-Ras G12C. It counts as biochemical.
Test [8] deals with KRAS G13C binding to BRAF RBD (Homo sapiens (Human), UniProt P01116+P62937, G13C). Description: Ras-Raf disruption/FRET/MOA assay, KRAS G13C. It counts as biochemical.
The subject of test [9] is K-Ras G12C (NCI-H358 cells). As to the kind of experiment: Potency assay: pERK in NCI-H358 cells. It counts as cell-based, human.
The subject of test [10] is NCI-H358 (K-Ras G12C). As to the kind of experiment: CellTiter-Glo cell viability assay, NCI-H358. In kind it is cell-based, human. Particulars: read-out: H358 Cell Viability (K-Ras G12C) IC50; 5-day treatment.
Where [11] appears, read: read-out: FRET (K-Ras G13C) IC50.
Where [12] appears, read: read-out: FRET (K-Ras G12C) IC50.
Setting [13] is: read-out: H358 pERK (K-Ras G12C) EC50, NCI-H358.
[14] abbreviates: read-out: pERK EC50 (H358 KRAS G12C), NCI-H358 cells, 4 hours.

On to `CCn1c(-c2cccnc2[C@H](C)OC)c2c3cc(ccc31)-c1cc(O)cc(c1)C[C@H](NC(=O)[C@H](C1CCCC1)N(C)C(=O)CN(C)C(=O)[C@H]1[C@@H](C3CC3)N1CCCOC)C(=O)N1CCC[C@H](N1)C(=O)OCC(C)(C)C2` (stereo partly drawn), for which the IC50 – broadly, the concentration at which inhibition is half-maximal – in the test with NCI-H358 (K-Ras G12C) [1] was in the range of 10 to 100 nM; in the test with AsPC-1 (K-Ras G12D) [2] it was 10 to 100 nM; at KRAS G13C it was 10 to 100 nM; on KRAS WT it was 10 to 100 nM; at NRAS WT it was 10 to 100 nM; at KRAS G13D it was 100 to 1000 nM. The IC50 was 10 to 100 nM at KRAS Q61H, 10 to 100 nM on KRAS G12S, 10 to 100 nM on KRAS G12V and 100 to 1000 nM on KRAS G12D. Further, the half-maximal effective concentration (EC50) (usually the concentration at which the effect is half-maximal) in the test on AsPC-1 (K-Ras G12D) [3] was below 5000 nM.
With `CCn1c(-c2cccnc2[C@H](C)OC)c2c3cc(ccc31)-c1cc(O)cc(c1)C[C@H](NC(=O)[C@H](C(C)C)N(C)C(=O)CN(C)C(=O)[C@@H]1CN1CCCOC(C)=O)C(=O)N1CCC[C@H](N1)C(=O)OCC(C)(C)C2` (stereo partly drawn), the IC50 in the test with NCI-H358 (K-Ras G12C) [1] was below 10 nM; in the test on AsPC-1 (K-Ras G12D) [2], 100 to 1000 nM; at KRAS G13C it was 10 to 100 nM; on KRAS WT, 10 to 100 nM; at NRAS WT it was 10 to 100 nM; on KRAS G13D it was 100 to 1000 nM. Also, the half-inhibitory concentration (IC50) on KRAS Q61H, at KRAS G12S, at KRAS G12V and at KRAS G12D was 10 to 100 nM throughout. Besides, in the test with AsPC-1 (K-Ras G12D) [3], the half-maximal effective concentration (EC50) was below 5000 nM.
Turning to `C=CC(=O)N1CC[C@H](C(=O)N(C)[C@H](C(=O)N[C@H]2Cc3cc(O)cc(c3)-c3ccc4c(c3)c(c(-c3cnccc3[C@H](C)OC)n4CC)CC(C)(C)COC(=O)[C@@H]3CCCN(N3)C2=O)C(C)C)C1` [Compound A76], the IC50 in test [4], in [5] and in [6] was 10 to 100 nM each time.
For the molecule `C=CC(=O)N1CC[C@H](C(=O)N(C)[C@H](C(=O)N[C@H]2Cc3cc(O)cc(c3)-c3ccc4c(c3)c(c(-c3ncccc3COC)n4CC)CC(C)(C)COC(=O)[C@@H]3CCCN(N3)C2=O)C(C)C)C1` [A028], the IC50 in [7] (read-out: KRAS G12C FRET IC50), in test [5] and in test [6] was 10 to 100 nM throughout.
Consider `C=CC(=O)N1CC[C@H](C(=O)N(C)[C@H](C(=O)N[C@H]2Cc3cc(O)cc(c3)-c3ccc4c(c3)c(c(-c3ccc(N5CCN(C)CC5)nc3)n4CC)CC(C)(C)COC(=O)[C@@H]3CCCN(N3)C2=O)C(C)C)C1` [A89a], for which the figures for the IC50 (in test [8] (setting [11]); in test [7] (setting [12]); in the test with NCI-H358 (K-Ras G12C) [10]) were 820 nM, 9 nM and 0.8 nM, respectively. For the same molecule, the EC50 in test [9] (setting [13]) worked out at 3 nM.
Consider `C=CC(=O)N1CC[C@H](C(=O)N(C)[C@H](C(=O)N[C@H]2Cc3cc(O)cc(c3)-c3ccc4c(c3)c(c(-c3ccc(N5CCN(C)CC5)nc3)n4CC)CC(C)(C)COC(=O)[C@@H]3CCCN(N3)C2=O)C(C)C)C1` [A89b], for which the IC50 amounted to 580 nM in test [8] (setting [11]), 34 nM in test [7] (setting [12]) and 11 nM with NCI-H358 (K-Ras G12C) [10]. In addition, the EC50 in test [9] (setting [13]) came out at 28 nM.
Consider `CCn1c(-c2cccnc2COC)c2c3cc(ccc31)-c1cc(O)cc(c1)C[C@H](NC(=O)[C@H](C(C)C)N(C)C(=O)[C@H]1CCN(C(=O)C#CCN(C)C)C1)C(=O)N1CCC[C@H](N1)C(=O)OCC(C)(C)C2`, for which the IC50 in test [8] (read-out: KRAS G13C FRET IC50) and in [7] (read-out: KRAS G12C FRET IC50) was below 10 nM each time.
On to `C=CC(=O)N1CC(OC[C@H](C(=O)N[C@H]2C[C@H]3CN(CCO3)c3ccc4c(c3)c(c(-c3cccnc3[C@H](C)OC)n4CC(F)(F)F)CC(C)(C)COC(=O)[C@@H]3CCCN(N3)C2=O)C(C)C)C1`, for which the EC50 in [9] (setting [14]) was below 5000 nM.
As for `CCn1c(-c2cccnc2COC)c2c3cc(ccc31)-c1cc(O)cc(c1)C[C@H](NC(=O)[C@H](C(C)C)N(C)C(=O)C1CN(C(=O)C#CCN(C)C)C1)C(=O)N1CCC[C@H](N1)C(=O)OCC(C)(C)C2`, the IC50 in [8] (read-out: KRAS G13C FRET IC50) was below 10 nM.
With `CCn1c(-c2cnccc2COC)c2c3cc(ccc31)-c1cc(O)cc(c1)C[C@H](NC(=O)[C@H](C(C)C)N(C)C(=O)[C@H]1CCN(C(=O)/C=C/CN(C)C)C1)C(=O)N1CCC[C@H](N1)C(=O)OCC(C)(C)C2`, the half-inhibitory concentration (IC50) in test [5] and in [6] was 10 to 100 nM in each case.
On to `CCn1c(-c2cccnc2[C@H](C)OC)c2c3cc(ccc31)-c1cc(O)cc(c1)C[C@H](NC(=O)[C@H](C(C)C)N(C)C(=O)CN(C)C(=O)[C@H]1CN1CCCOC(C)=O)C(=O)N1CCC[C@H](N1)C(=O)OCC(C)(C)C2` (stereo partly drawn), for which the IC50 in the test with NCI-H358 (K-Ras G12C) [1] was below 10 nM; with AsPC-1 (K-Ras G12D) [2], 100 to 1000 nM; on KRAS G13C, 10 to 100 nM; on KRAS WT, 100 to 1000 nM; at NRAS WT it was 100 to 1000 nM; at KRAS G13D it was 100 to 1000 nM. Further, the IC50 was in the range of 10 to 100 nM on KRAS Q61H, 10 to 100 nM on KRAS G12S, 100 to 1000 nM on KRAS G12V and 100 to 1000 nM at KRAS G12D. Also, in the test with AsPC-1 (K-Ras G12D) [3], the EC50 was below 5000 nM.
Regarding `CO[C@@H](C)c1ncccc1-c1c2c3nc(ccc3n1CC(F)(F)F)-c1cccc(c1)C[C@H](NC(=O)[C@@H](COC1CN(C(=O)C#CC(C)(C)N(C)C)C1)C(C)C)C(=O)N1CCC[C@H](N1)C(=O)OCC(C)(C)C2`, the concentration for a half-maximal effect (EC50) in test [9] (setting [14]) was below 5000 nM.
With `C=CC(=O)N1CC[C@H](C(=O)N(C)[C@H](C(=O)N[C@H]2Cc3cc(O)cc(c3)-c3ccc4c(c3)c(c(-c3cccnc3[C@H](C)OC)n4CC)CC(C)(C)COC(=O)[C@@H]3CCCN(N3)C2=O)C(C)C)C1`, the IC50 in test [4], in [5] and in [6] was 10 to 100 nM throughout.
